Literature values, collected in patent US20250049819A1, “METHODS FOR TREATING AND PREVENTING C. DIFFICILE INFECTION” (Paratek Pharmaceuticals, Inc., priority 2016, published 2025).

Test system: C. difficile and gut microbiota
Settings: published gut model studies; cited from earlier work

Substance: amoxicillin clavulanate
- induction of simulated CDI (C. difficile germination and toxin production) in the gut model: have induced CDI in this model
